Protein sequences, listed by entry. Tags and fused reporters are not part of them. Residues count along the entry.
UniProt P80209, 45-390 limits assumed: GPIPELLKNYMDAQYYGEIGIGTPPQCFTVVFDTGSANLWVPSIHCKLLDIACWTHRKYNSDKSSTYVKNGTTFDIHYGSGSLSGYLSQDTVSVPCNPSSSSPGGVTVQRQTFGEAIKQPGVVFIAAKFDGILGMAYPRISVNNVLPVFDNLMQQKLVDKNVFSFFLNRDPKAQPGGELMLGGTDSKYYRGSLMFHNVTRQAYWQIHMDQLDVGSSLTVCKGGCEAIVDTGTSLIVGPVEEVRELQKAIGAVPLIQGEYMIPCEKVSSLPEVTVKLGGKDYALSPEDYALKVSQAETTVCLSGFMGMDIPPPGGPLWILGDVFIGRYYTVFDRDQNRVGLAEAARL
UniProt Q6DLS0, 67-406 limits assumed: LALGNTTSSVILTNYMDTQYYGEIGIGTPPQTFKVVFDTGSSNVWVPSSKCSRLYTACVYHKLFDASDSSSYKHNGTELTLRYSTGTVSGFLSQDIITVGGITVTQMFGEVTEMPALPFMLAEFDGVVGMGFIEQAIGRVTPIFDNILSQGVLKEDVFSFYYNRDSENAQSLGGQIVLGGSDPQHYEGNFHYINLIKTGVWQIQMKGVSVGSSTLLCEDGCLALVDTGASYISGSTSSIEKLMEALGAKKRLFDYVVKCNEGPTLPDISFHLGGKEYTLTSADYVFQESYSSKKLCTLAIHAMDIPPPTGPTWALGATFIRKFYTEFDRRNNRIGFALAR

In patent US5071837A:

Columns and labels:
[1] = molecular target: Bovine Cathepsin D (Bos taurus, UniProt P80209); test: cathepsin D inhibition (selectivity versus renin); conditions: read-out: IC50 Bovine Cathepsin D; tested form: methanesulfonate hydrate
[2] = molecular target: Monkey Renin (Macaca fascicularis, UniProt Q6DLS0); test: in vitro renin inhibitory activity, radioimmunoassay for angiotensin I; conditions: read-out: IC50 (nM) Monkey Renin; renin incubated 2 hours at 37° with angiotensinogen; tested form: methanesulfonate hydrate
Protocol: An additional aspect of the present invention is a method for treating renin-associated congestive heart failure in a mammal which comprises administering a pharmaceutical composition containing an effective amount of a compound in combination with a pharmaceutically acceptable carrier to the mammal. The effectiveness of the aforementioned compounds is determined by a test for in vitro renin inhibitory activity. This activity is determined by a standard radioimmunoassay for angiotensin I. In this assay, the enzyme, renin, incubated for 2 hours at 37° in the presence of a substrate, angiotensinogen, generates the product, angiotensin I. Test compounds are added to the incubation mixture. Relative activity is reported as the IC50, which is the molar concentration of test compound, causing a 50% inhibition of the renin activity.

Question: What does the source list for `C=CC[C@H](NC(=O)[C@H](Cc1ccccc1)NC(=O)CCc1cccnc1)C(=O)N[C@@H](CC1CCCCC1)C(=O)C(F)(F)C(=O)NCCN1CCOCC1`?
Answer: IC50 [1]: 1600 nM; IC50 [2]: 0.23 nM
